# From PubChem BioAssay AID504339 (National Center for Advancing Translational Sciences (NCATS), 2011)
# Amino acid sequences for entries named in this document (tags omitted).
# UniProt O75164, whole entry: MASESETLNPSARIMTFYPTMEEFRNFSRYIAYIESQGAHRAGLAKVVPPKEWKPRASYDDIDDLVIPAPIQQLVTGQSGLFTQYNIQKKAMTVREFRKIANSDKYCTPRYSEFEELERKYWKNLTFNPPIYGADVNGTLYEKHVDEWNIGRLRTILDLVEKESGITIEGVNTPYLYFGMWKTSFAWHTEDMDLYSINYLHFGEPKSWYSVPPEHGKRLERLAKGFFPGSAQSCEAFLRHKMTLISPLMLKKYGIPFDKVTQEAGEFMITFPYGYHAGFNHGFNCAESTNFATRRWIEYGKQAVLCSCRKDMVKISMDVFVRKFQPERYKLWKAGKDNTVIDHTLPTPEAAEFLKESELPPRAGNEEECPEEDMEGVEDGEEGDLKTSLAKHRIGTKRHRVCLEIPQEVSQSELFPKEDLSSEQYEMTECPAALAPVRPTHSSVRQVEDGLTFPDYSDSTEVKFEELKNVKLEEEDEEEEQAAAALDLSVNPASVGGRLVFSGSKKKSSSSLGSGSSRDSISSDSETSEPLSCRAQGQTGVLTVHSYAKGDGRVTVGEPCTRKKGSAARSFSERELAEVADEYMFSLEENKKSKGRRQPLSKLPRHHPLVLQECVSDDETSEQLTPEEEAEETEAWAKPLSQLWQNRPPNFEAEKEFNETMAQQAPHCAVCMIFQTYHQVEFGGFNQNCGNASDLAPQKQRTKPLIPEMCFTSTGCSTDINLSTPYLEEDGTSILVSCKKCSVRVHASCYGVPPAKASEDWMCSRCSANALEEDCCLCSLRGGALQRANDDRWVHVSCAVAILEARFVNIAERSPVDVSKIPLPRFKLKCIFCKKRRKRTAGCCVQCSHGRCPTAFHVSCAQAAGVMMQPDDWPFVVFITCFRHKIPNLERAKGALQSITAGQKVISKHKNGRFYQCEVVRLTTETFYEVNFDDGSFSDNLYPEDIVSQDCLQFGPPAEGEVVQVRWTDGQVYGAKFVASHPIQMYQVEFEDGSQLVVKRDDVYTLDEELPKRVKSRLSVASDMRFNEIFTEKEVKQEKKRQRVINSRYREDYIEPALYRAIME
# Values joined by “and” are separate entries in the source; they are usually repeats but may differ in a detail not shown here. Identical values can stand only once. The entries are a selection whose mix differs from that of the whole data set. Some of these compounds have results that are not shown, active ones among them. Results filed as inconclusive are left out. Active and inactive are the calls of the source. Calls come from the whole dose curve; as a rule, active = well fitted inhibition curve with a large enough effect; inconclusive = small, poorly fitted or top-dose-only effect; inactive = no such curve, though single readings can be large or run the other way.
# Target: Lysine-specific demethylase 4A (Homo sapiens) (UniProt O75164)
# Experiment: qHTS Assay for Inhibitors of JMJD2A-Tudor Domain; note: nearly all actives have a fitted effect of over 50% in size
# Details: AlphaScreen JMJD2A-Tudor / H3K4me3 peptide binding; at 114 µM (top of the series) unless noted
# % is set by controls: 0 for no effect and ±100 for the full control effect.
row,Compound,"activity change, negative = inhibition"
1,O=C(OC1CN2CCC1CC2)C(CO)(c1ccccc1)c1ccccc1 (stereo not given),inactive: -10.1%
2,COc1cccc(C(=O)NCC2(N3CCOCC3)CCCCC2)c1,inactive: -10.6%
3,CC(C)COc1ccc(C(=O)NCC2(N(C)C)CCCCC2)cc1,inactive: -7.28%
4,COc1ccc(Br)c(C(=O)NCC2(N3CCCCC3)CCCCC2)c1,inactive: -24.2%
5,Cc1cccc(C(=O)NCC2(N(C)C)CCCCC2)c1,inactive: -16.9%
6,COc1cc(C(=O)NCC2(N(C)C)CCCCC2)cc(OC)c1OC,inactive: 2.98%
7,CN(C)c1cccc(C(=O)NCC2(N(C)C)CCCCC2)c1,inactive: -4.12%
8,O=C(OCCN1CCCC1)C(O)(c1ccccc1)c1ccccc1,inactive: -14.4%
9,CC(C)Oc1ccc(C(=O)NCC2(N(C)C)CCCCC2)cc1,inactive: -13.6% and inactive: -8.81%
10,CN(C)C1(CNC(=O)c2ccc(Br)cc2)CCCCC1,inactive: -7.04%
11,COc1cc(C(=O)NCC2(N(C)C)CCCCC2)c([N+](=O)[O-])cc1OC,inactive: -12.4%
12,COc1ccc(C(=O)NCC2(N(C)C)CCCCC2)cc1Cl,inactive: -8.61%
13,COc1ccc(Cl)cc1C(=O)NCC1(N(C)C)CCCCC1,inactive: -14.9%
14,COc1cccc(C(=O)NCC2(N3CCCCC3)CCCCC2)c1,inactive: -12.5%
15,O=C(NCC1(N2CCCCC2)CCCCC1)c1cccc(Cl)c1,inactive: -14.5%
16,CN(C)c1ccc(C(=O)NCC2(N(C)C)CCCCC2)cc1,inactive: -12.9%
17,CN(C)C1CCCC1OC(=O)C(O)(c1ccccc1)c1ccccc1 (stereo not given),inactive: -29.4% [at 57.1 µM]
18,Cc1ccccc1C(=O)NCC1(N2CCCCC2)CCCCC1,inactive: -16.3%

row,Compound,"activity change, negative = inhibition"
1,CN(C)C1(CNC(=O)c2ccccc2[N+](=O)[O-])CCCCC1,inactive: -4.3%
2,CCCCOc1ccccc1C(=O)NCC1(N(C)C)CCCCC1,inactive: -13.2%
3,O=C(NCC1(N2CCCCC2)CCCCC1)c1cc(F)c(F)cc1Cl,inactive: -12.6%
4,C=CCN1CCN(CCOC(=O)C(O)(c2ccccc2)c2ccccc2)CC1,inactive: -13%
5,O=C(NCC1(N2CCCCC2)CCCCC1)c1cccc(Br)c1,inactive: -15.1%
6,CCN1CCCC(OC(=O)C2(O)c3ccccc3C=Cc3ccccc32)C1 (stereo not given),inactive: 16%
7,Cc1cc(C(=O)NCC2(N3CCCCC3)CCCCC2)ccc1[N+](=O)[O-],inactive: -11%
8,CCOc1cccc(C(=O)NCC2(N(C)C)CCCCC2)c1,inactive: -1.99%
9,COc1ccc(C(=O)NCC2(N(C)C)CCCCC2)cc1,inactive: 7.12%
10,O=C(NCC1(N2CCCCC2)CCCCC1)c1cc([N+](=O)[O-])ccc1Cl,inactive: -9.94%
11,CN1[C@@H]2CC[C@H]1CC(OC(=O)C(O)(c1ccccc1)c1ccccc1)C2 (stereo not given in full),inactive: -11.7%
12,CC(C)N1C(=O)CC2(CCN(CCOC(=O)C(O)(c3ccccc3)c3ccccc3)CC2)C1=O,inactive: 4.94%
13,COc1cc(SC)ccc1C(=O)NCC1(N(C)C)CCCCC1,inactive: -12.7%
14,CN(C)C1(CNC(=O)c2cccc(Cl)c2)CCCCC1,inactive: -4.3%
15,CCN(CC)CC(C)C(C)OC(=O)C(O)(c1ccccc1)c1ccccc1 (stereo not given),inactive: -15.2%
16,CN(C)C1(CNC(=O)c2ccccc2F)CCCCC1,inactive: -9.93%
17,Cc1ccc(C(=O)NCC2(N3CCCCC3)CCCCC2)cc1,inactive: -9.25%
